Reference: ChEMBL document CHEMBL5728533, “Farnesoid X receptor modulators” (2021)

Assay: AlphaScreen Assay: AlphaScreen was used with the aim of identifying novel modulators by taking advantage of the bimolecular interaction prevailing between FXR and the LXXLL motif present in the NR box of the steroid receptor coactivator 1 (SRC-1).Human FXR-LBD-GST was incubated with increasing concentrations of the indicated ligands in the presence of biotinylated LXXLL SRC-1 peptide. The AlphaScreen signal increases when the complex receptor-coactivator is formed.

Work on CC[C@H]1[C@@H](O)C2C3CC[C@H](C(C)CC(C)C(=O)O)[C@@]3(C)C(O)CC2[C@@]2(C)CC[C@@H](O)C[C@@H]12 (stereo partly specified) yielded an EC50 of 175 µM.
